Experimental findings from patent US20230203052A1, “ACYCLIC CUCURBITURILS, METHODS OF MAKING SAME, AND USES THEREOF” (University of Maryland, College Park, priority 2020, published 2023) are described below.

Molecules are shown by their SMILES. “And” between values parts separate entries of the source, which are not always exact repeats. Equal values may be shown once.

Experiment [1] can be described thus: ITC binding of guests to host 1 (direct or competitive titration). The settings on record: for Ka of host·guest complex of 1: pH 7.4.
The subject of experiment [2] is male Swiss Webster (CFW) mice. The settings on record: mouse, in vivo.

`CC(=O)Oc1ccc2c3c1O[C@H]1[C@@H](OC(C)=O)C=C[C@H]4[C@@H](C2)N(C)CC[C@@]341` [Heroin]: the “Ka of host·guest complex of 1” value in experiment [1] is listed as 8.20 × 10^5; −14.5 M^−1.
For `COc1ccc2c3c1O[C@H]1C(=O)CC[C@H]4[C@@H](C2)N(C)CC[C@]314` [Hydrocodone], the “Ka of host·guest complex of 1” value in experiment [1] is on record as 2.88 × 10^6; −18.5 M^−1.
With `CNC1(c2ccccc2Cl)CCCCC1=O` (stereo not drawn) [Ketamine], the “Ka of host·guest complex of 1” value in experiment [1] is reported as 8.13 × 10^3; −12.1 M^−1.
As to `CNC(C)Cc1ccc2c(c1)OCO2` (stereo not drawn) [MDMA], the “Ka of host·guest complex of 1” value in experiment [1] is reported as 2.54 × 10^6; −17.8 M^−1.
On to `CCOC(=O)C1(c2ccccc2)CCN(C)CC1` [Meperidine], for which the “Ka of host·guest complex of 1” value in experiment [1] is 9.09 × 10^3; −9.08 M^−1.
Take `CNC(C)C(=O)c1ccc(C)cc1` (stereo not drawn) [Mephedrone]: the “Ka of host·guest complex of 1” value in experiment [1] is reported as 1.24 × 10^6; −16.4 M^−1.
With `COc1ccc2c3c1O[C@H]1C(=O)CC[C@@]4(O)[C@@H](C2)N(C)CC[C@]314` [Oxycodone], the “Ka of host·guest complex of 1” value in experiment [1] is reported as 3.24 × 10^6; −19.4 M^−1.
Regarding `NCCCCN` [guest 5], the “Ka of host·guest complex of 1” value in experiment [1] is 1.68×10^6 M^−1 and 1.68 × 10^6; −6.76 ± 0.020^a) M^−1.
For the compound `CCCCCC[N+](C)(C)C` [guest 6Q], in experiment [1], the “Host 1 binds guest weaker than quaternary diammonium 6d” value is on record as 890 fold; the “Ka of host·guest complex of 1” value is 7.57×10^6 M^−1 and 7.57 × 10^6; −9.68 ± 0.063^a) M^−1.
For the compound `NCCCCCCN` [guest 6a], in experiment [1], the “Ka of host·guest complex of 1” value is 3.70×10^8 M^−1 and 3.70 × 10^8; −8.60 ± 0.021^b) M^−1.
Same read-out and setting: as for `CNCCCCCCNC` [guest 6b], the figure is 5.26×10^8 M^−1 and 5.26 × 10^8; −9.82 ± 0.038^c) M^−1; as for `CN(C)CCCCCCN(C)C` [guest 6c], 5.74×10^8 M^−1 and 5.74 × 10^8; −10.5 ± 0.028^c) M^−1.
Consider `C[N+](C)(C)CCCCCC[N+](C)(C)C.[Cl-].[Cl-]` [guest 6d], for which, in experiment [1], the “Binding of 1 to guest stronger than M1” value was found to be 75 fold; the “Host 1 preference for guest over primary-tertiary ammonium ions 6a-6c” value was “≈ 10 fold”; the “Ka of host·guest complex of 1” value was 6.79×10^9 M^−1 and 6.71×10^9 M^−1 and 6.71 × 10^9; −12.1 ± 0.042^c) M^−1.
As for `C[N+](C)(C)CCCCCCCCCC[N+](C)(C)C` [guest 10d], the “Ka of host·guest complex of 1” value in experiment [1] is 5.43×10^8 M^−1 and 5.43 × 10^8; −10.3 ± 0.088^c) M^−1.
Consider `Cl.Cl.NCc1ccc(CN)cc1` [guest 11a], for which the “Ka of host·guest complex of 1” value in experiment [1] is 9.71×10^8 M^−1 and 9.71 × 10^8; −9.69 ± 0.014^b) M^−1.
`C[N+](C)(C)Cc1ccc(C[N+](C)(C)C)cc1.[Cl-].[Cl-]` [guest 11d]: in experiment [1], the “Ka of host·guest complex of 1” value is 1.05×10^9 M^−1 and 1.05 × 10^9; −12.0 ± 0.030^b) M^−1.
Same read-out and setting: then `Cl.NC12CC3CC(CC(C3)C1)C2` [guest 12a], with 9.90×10^5 M^−1 and 9.90 × 10^5; −4.45 ± 0.021^a) M^−1; and `C[N+](C)(C)C12CC3CC(CC(C3)C1)C2.[I-]` [guest 12d], with 6.66×10^6 M^−1 and 6.66 × 10^6; −7.36 ± 0.030^d) M^−1; and `Cl.Cl.NC1CCC(N)CC1` (stereo not drawn) [guest 13a], with 3.41×10^6 M^−1 and 3.41 × 10^6; −2.92 ± 0.019^a) M^−1.
Consider `c1ccc(C2(N3CCCCC3)CCCCC2)cc1` [guest 16, PCP], for which, in experiment [1], the “Binding of host 1 compared with M1 (in words)” value is given as “somewhat tighter”; the “Ka of host·guest complex of 1” value was 1.89×10^5 M^−1 and 1.89 × 10^5; −6.18 ± 0.069^a) M^−1.
Turning to `CN1CC[C@]23c4c5ccc(O)c4O[C@H]2[C@@H](O)C=C[C@H]3[C@H]1C5` [guest 17, morphine], in experiment [1], the “Binding of host 1 compared with M1 (in words)” value is “somewhat tighter”; the “Ka of host·guest complex of 1” value is 7.69×10^5 M^−1 and 7.69 × 10^5; −8.03 ± 0.07^a) M^−1.
With `C=CCN1CC[C@]23c4c5ccc(O)c4O[C@H]2C(=O)CC[C@@]3(O)[C@H]1C5` [guest 18], in experiment [1], the “Ka of host·guest complex of 1” value is 4.85×10^6 M^−1 and 4.85 × 10^6; −5.90 ± 0.205^a) M^−1.
For the compound `C=CC[N+]1([C@H]2C[C@H]3[C@@H]4CC[C@H]5C[C@H](O)[C@@H](N6CCOCC6)C[C@]5(C)[C@H]4CC[C@]3(C)[C@H]2OC(C)=O)CCCC1` [guest 19, rocuronium], in experiment [1], the “Binding of 1 to guest stronger than M1” value came to 75 fold; the “Ka of host·guest complex of 1” value is 6.29×10^8 M^−1 and 6.29 × 10^8; −12.9 ± 0.056^b) M^−1.
`CC(=O)O[C@H]1C[C@@H]2CC[C@@H]3[C@H](CC[C@@]4(C)[C@H]3C[C@H]([N+]3(C)CCCCC3)[C@@H]4OC(C)=O)[C@@]2(C)C[C@@H]1N1CCCCC1` [guest 20, vecuronium]: in experiment [1], the “Binding of 1 to guest stronger than M1” value worked out at 172 fold; the “Ka of host·guest complex of 1” value is 1.00×10^9 M^−1 and 1.00 × 10^9; −9.62 ± 0.036^c) M^−1.
For `C[C@]12N3Cc4c(OS(=O)(=O)[O-])ccc(OS(=O)(=O)[O-])c4CN1C(=O)N1CN4C(=O)N5CN6C(=O)N7CN8C(=O)N9Cc%10c(OS(=O)(=O)[O-])ccc(OS(=O)(=O)[O-])c%10CN%10C(=O)N(CN%11C(=O)N(CN%12C(=O)N(CN(C3=O)[C@]12C)[C@@H]4[C@H]%125)[C@@H]6[C@H]%117)[C@]8(C)[C@@]9%10C.[Na+].[Na+].[Na+].[Na+]` [host 1], in experiment [2], the “Locomotion counts, 5-minute reversal (methamphetamine then Motor0 5 minutes later)” value was “significant decrease in locomotion”; the “Locomotion counts, 30s Blocking (Motor0 then methamphetamine 30 s later)” value is “effectively reduce the locomotion levels to that observed for D5W alone”; the “Locomotion counts, 30 s Reversal (methamphetamine then Motor0 30 s later)” value is recorded as “significantly lower than Meth alone”; the “Locomotion counts, Motor0 only” value is “does not significantly change the locomotion levels”. In addition, the “Locomotion counts, Premix of Motor0 and methamphetamine” value in experiment [2] is listed as “effectively reduce the locomotion levels to that observed for D5W alone”.
